Measured values taken from PubChem BioAssay AID720537 (National Center for Advancing Translational Sciences (NCATS), 2013).
Only a part is listed here, and it is no random draw. Inconclusive results are not listed. Active and inactive are the calls of the source. The call rests on the fitted dose curve; in most records, active means well fitted inhibition curve with a large enough effect; inconclusive means small, poorly fitted or top-dose-only effect; inactive means no such curve, though single readings can be large or run the other way.

Test: qHTS for Inhibitors of TGF-b: Hit Validation in HepG2 Cells using COP promoter;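 further: 0% = TGF-beta stimulated DMSO wells and -100% = unstimulated cell wells; nearly all actives have a fitted effect of over 70% in size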
Details: HepG2 COP-GFP TGF-b reporter, GFP fluorescence, 18 h, cells stimulated by added recombinant TGF-beta; at 46.1 µM (top of the series)
Text: TGF-b is a main component in the TGF-b signaling pathway which plays diverse roles in cellular and development pathways. TGF-b is the mediated by the transcription factors Smads. Although the Smad-dependent pathway is the primary canonical TGF-b signaling node, TGF-b1 can also activate alternative signaling pathways, including those involving MAPK (ERK, JNK and p38). This interaction may mediate or enhance Smad-dependent responses, or can exert Smad-independent effects. The complexity of this signaling cascade allows the TGF-b superfamily to perform unique, overlapping or redundant functions. […] We aim to identify Smad3-small molecule antagonists using a quantitative high throughput screening (qHTS) approach. […]
Suspensions of trypsinized HEPG2 COP-GFP cells were dispensed into white, tissue culture-treated, solid 1536-well plates at 5uL/well (1000 cells/well final concentration) in DMEM medium supplemented with 1% FBS. […] The plates were measured on an Acumen eX3 Explorer plate reader for GFP fluorescence (ex488/em500-530). GFP values were calculated by determining the mean GFP fluorescence of individual cells, and compiling these values for each well to determine a total well GFP signal. The %Activity was determined from the corrected fluorescence values. […] Concentration-response curves were fitted to the signals arising from the resulting fluorescence. […]

SMILES | activity, negative = inhibition
O=c1c2cc([N+](=O)[O-])ccc2[nH]c2c([N+](=O)[O-])cc([N+](=O)[O-])cc12 | inactive: -66%
